For three compounds, Potency results are on record in PubChem BioAssay AID1030 (National Center for Advancing Translational Sciences (NCATS), 2008).

Sequences of proteins named here, by UniProt entry; tags and fusion partners are left off. A change or cut given only in a name is not applied to a line headed by its entry.
UniProt P00352: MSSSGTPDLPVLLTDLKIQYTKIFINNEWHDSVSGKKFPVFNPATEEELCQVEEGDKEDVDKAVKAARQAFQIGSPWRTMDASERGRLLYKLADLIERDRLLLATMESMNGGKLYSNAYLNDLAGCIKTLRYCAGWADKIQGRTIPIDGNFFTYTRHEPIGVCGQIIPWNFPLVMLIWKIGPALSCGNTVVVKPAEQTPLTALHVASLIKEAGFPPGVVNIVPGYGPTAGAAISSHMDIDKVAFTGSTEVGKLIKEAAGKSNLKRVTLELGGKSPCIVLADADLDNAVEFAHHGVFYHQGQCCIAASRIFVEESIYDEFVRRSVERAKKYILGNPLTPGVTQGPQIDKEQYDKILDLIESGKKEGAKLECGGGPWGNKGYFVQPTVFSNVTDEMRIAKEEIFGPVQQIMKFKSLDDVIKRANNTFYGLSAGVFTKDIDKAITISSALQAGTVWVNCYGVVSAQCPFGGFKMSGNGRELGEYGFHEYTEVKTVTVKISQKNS

Molecules are shown by their SMILES. The list shows a part of the results, in another mix than the full data. Inconclusive results are not listed. The source made the active and inactive calls. The call rests on the fitted dose curve; in most records, active means well fitted inhibition curve with a large enough effect (not every such curve was filed as active); inconclusive means small, poorly fitted or top-dose-only effect, or another doubt; inactive means no such curve, though single readings can be large or run the other way.
Potency means the concentration at half of the fitted maximal effect.

The target in the test is Aldehyde dehydrogenase 1A1 (Homo sapiens) (UniProt P00352). Briefly: qHTS Assay for Inhibitors of Aldehyde Dehydrogenase 1 (ALDH1A1). The settings on record: Purified ALDH1A1, NADH fluorescence, propionaldehyde substrate. A general note: Quantitative high-throughput screening tests each substance at several concentrations.
For the compound `CC[n+]1c(/C=C/N(C)c2ccccc2)oc2ccccc21`, the Potency was active: 31.6 µM.
Consider `Cn1c2c(c(=O)n(C)c1=O)[C@@]1(C(=O)Nc3ccccc31)C(C#N)=C(N)O2`, for which the Potency is active: 14.1 µM.
The value for `CC(C)(C)C(=O)CSc1nc2c(c(-c3cccs3)c1C#N)CCC2` was active: 20 µM.
